Values quoted from earlier work as cited in patent publication US10881637B2, “Intranasal and transdermal administration of kappa-opioid-receptor agonists: salvinorin A for the treatment of neuropsychiatric and addictive disorders” (priority 2015, dated 2021).

Amino acid sequences for entries named in this document (tags omitted). A change or cut given only in a name is not applied to a line headed by its entry.
UniProt P41145: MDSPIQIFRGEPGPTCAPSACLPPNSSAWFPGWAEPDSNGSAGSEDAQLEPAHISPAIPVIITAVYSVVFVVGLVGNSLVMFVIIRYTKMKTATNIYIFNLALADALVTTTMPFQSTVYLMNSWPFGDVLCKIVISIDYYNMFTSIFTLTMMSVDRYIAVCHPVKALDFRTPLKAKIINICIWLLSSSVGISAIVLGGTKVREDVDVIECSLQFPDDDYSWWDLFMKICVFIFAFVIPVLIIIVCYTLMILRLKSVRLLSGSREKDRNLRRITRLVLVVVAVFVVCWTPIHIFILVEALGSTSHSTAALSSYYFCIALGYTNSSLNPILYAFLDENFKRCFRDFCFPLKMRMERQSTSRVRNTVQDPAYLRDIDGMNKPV

Molecular target: kappa-opioid receptor (Homo sapiens, UniProt P41145)
Conditions: cited from earlier work

In the case of COC(=O)[C@@H]1C[C@H](OC(C)=O)C(=O)[C@H]2[C@@]1(C)CC[C@H]1C(=O)O[C@H](c3ccoc3)C[C@]21C [salvinorin A], the kappa-opioid-receptor activity is listed as “uniquely selective kappa-opioid-receptor agonist” and the kappa-opioid-receptor activity (listed as Salvinorin A) is listed as “selective kappa-opioid-receptor agonist”.

Where two headings read alike, the source gives them in different places.
